In PubChem BioAssay AID1619 (SRMLSC, 2009):
This is a selection; strong and weak results do not stand in their true shares. Measured potencies and affinities stand elsewhere. Some of these compounds have results that are not shown, active ones among them. Activity calls are given as the source filed them.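 The calls were made as follows: active = compound inhibiting the enzyme by more than half at any dose during confirmatory dose-response retesting; inconclusive = strong single-dose inhibitors picked by rank but not retested; inactive = the rest.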

Sequences of proteins named here, by UniProt entry; tags and fusion partners are left off.
UniProt Q8IL11, whole entry: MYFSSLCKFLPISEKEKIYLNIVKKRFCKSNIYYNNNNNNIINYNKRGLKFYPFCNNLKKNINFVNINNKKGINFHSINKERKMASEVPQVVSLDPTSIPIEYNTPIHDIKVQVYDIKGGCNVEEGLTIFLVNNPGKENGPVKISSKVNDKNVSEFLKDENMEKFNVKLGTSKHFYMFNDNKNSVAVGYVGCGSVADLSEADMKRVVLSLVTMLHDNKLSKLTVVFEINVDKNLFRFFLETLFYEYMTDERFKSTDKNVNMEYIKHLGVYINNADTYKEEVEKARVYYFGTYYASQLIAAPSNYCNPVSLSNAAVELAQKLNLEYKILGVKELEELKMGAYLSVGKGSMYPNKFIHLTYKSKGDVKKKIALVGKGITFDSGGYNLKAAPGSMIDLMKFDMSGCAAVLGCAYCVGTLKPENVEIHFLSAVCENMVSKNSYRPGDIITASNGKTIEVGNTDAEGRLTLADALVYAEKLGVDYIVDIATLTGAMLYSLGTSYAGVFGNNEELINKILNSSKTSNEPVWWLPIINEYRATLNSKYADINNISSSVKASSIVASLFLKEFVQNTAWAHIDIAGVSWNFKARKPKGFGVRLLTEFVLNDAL

What follows are compounds tested against Leucine aminopeptidase (Plasmodium falciparum (isolate 3D7)) (UniProt Q8IL11) (assay: P. falciparum M17LAP inhibitors, primary screen, biochemical, fluorogenic H-Leu-NHMec substrate, 1536-well (AID 1619;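 also: plate controls were full reaction with DMSO carrier for no effect and no enzyme background for full effect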)). Details: recombinant M17LAP, H-Leu-NHMec fluorogenic kinetic assay; at 30 µM; active compounds read high.
In the case of CCN(CC)CC(C)C(C)OC(=O)C(O)(c1ccccc1)c1ccccc1 (stereo unspecified), the inhibition is reported as inactive: 1.88%. In the case of CC(C)N1C(=O)CC2(CCN(CCOC(=O)C(O)(c3ccccc3)c3ccccc3)CC2)C1=O, the inhibition is reported as inactive: -12.4%. O=C(NCC1(N2CCCCC2)CCCCC1)c1cc([N+](=O)[O-])ccc1Cl was tested, and the inhibition was inactive: 6.43%. In the case of CCN1CCCC(OC(=O)C2(O)c3ccccc3C=Cc3ccccc32)C1 (stereo unspecified), the inhibition is reported as inactive: -12%. For C=CCN1CCN(CCOC(=O)C(O)(c2ccccc2)c2ccccc2)CC1, the inhibition was inactive: -7.76%. For CN(C)C1CCCC1OC(=O)C(O)(c1ccccc1)c1ccccc1 (stereo unspecified), the inhibition was inactive: 1.76%. For Cc1ccccc1C(=O)NCC1(N2CCCCC2)CCCCC1, the inhibition was inactive: 2.86%. For COc1cccc(C(=O)NCC2(N3CCCCC3)CCCCC2)c1, the inhibition was inactive: -1.71%. With CN(C)c1cccc(C(=O)NCC2(N(C)C)CCCCC2)c1 the inhibition was inactive: 2.41%. In the case of COc1ccc(Br)c(C(=O)NCC2(N3CCCCC3)CCCCC2)c1, the inhibition is reported as inactive: -5.3%. For O=C(OC1CN2CCC1CC2)C(CO)(c1ccccc1)c1ccccc1 (stereo unspecified), the inhibition was inactive: 0.33%.
